The chains behind the UniProt entries cited, without tags or fusion partners.
DNA repair protein RAD52 homolog (Homo sapiens), P43351, UniProt P43351, whole entry, looked up: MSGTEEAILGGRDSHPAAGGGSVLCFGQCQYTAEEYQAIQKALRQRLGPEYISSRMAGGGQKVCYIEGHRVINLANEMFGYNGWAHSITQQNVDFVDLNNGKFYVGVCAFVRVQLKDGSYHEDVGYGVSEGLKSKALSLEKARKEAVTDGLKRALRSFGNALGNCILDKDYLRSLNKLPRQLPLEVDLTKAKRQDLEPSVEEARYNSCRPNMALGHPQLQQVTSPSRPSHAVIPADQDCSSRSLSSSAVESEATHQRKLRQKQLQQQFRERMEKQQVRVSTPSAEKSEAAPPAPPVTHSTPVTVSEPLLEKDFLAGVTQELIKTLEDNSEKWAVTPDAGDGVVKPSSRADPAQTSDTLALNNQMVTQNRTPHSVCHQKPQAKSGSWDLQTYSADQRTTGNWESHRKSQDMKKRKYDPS

# The list is not random: actives were taken first. Their share in the collection is about 0.73%.
# UUG fidelity – alters start codon recognition fidelity in yeast; AID 602363; activity score, % at 18.7 µM; 350,000 tested, 0.13% active; S. cerevisiae UUG-firefly luciferase reporter, luminescence/redox ratio;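 active means replicate mean at a twofold rise or more, about +100% in these data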;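 further: firefly luciferase made from a UUG start codon reports start codon fidelity; reporter light over untreated wells divided by growth signal over untreated wells; some hits fall short of that in this replicate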
# E-sel inducer – E-selectin induction in HUVECs, primary screen, imaging, HUVEC, immunofluorescence imaging, single point; P16581; normalized: neutral wells 0, TNF-alpha wells 100; activation, % at 7.58 µM; 260,000 compounds, 0.37% hits; AID 686992, 2013;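 active = mean E-selectin-positive cell signal at least 10% of the positive control, reached in at least 60% of replicates, without over 20% cell loss; inconclusive = no rule given, readout overlaps actives, possibly toxicity-flagged; inactive = the rest, including those meeting only one limit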
#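 material = human umbilical vein endothelial cells (HUVEC), E-selectin induction | quantity = 3,000 cells/well | medium = EGM-2 growth medium on 0.1% gelatin-coated wells | technique = immunofluorescence imaging | read-out basis = % PE-positive cells | control set = TNF-alpha positive control, DMSO neutral control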
# Xi reactivation – activators of inactive X chromosome reactivation, primary screen, imaging, XiGFP fibroblasts, GFP high-content imaging, set 2; XiGFP mouse fibroblasts, % GFP-positive cells imaging, 3 d; cells co-treated with 5-aza-dC sensitizer; scaled so ellipticine positive control = 100%; activation, % at 7.58 µM; 360,000 compounds, 0.055% hits;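 active = mean normalized replicate activation at least 10% and every replicate at or above 10%; inconclusive = only one of the two criteria met; inactive = mean below 10% and not all replicates reach 10%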;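 also: 0% = median of on-plate neutral control wells and 100% = ellipticine 6 µM median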
#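 System: 68-5-11 XiGFP fibroblast line; Timing: 3 days compound exposure; Compound dosing: one concentration, pinned; Benchmarks: positive control ellipticine, 6 µM final; Buffer or medium: DMEM containing 5-aza-dC.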
# RAD54 branch – inhibitors of human RAD54 branch migration, primary screen, biochemical, fluorescence, single point; 360,000 compounds, 0.14% hits; AID 602329, 2012; RAD54 Holliday junction branch migration, FAM/BHQ fluorescence; inhibition, % at 10.4 µM;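 active = mean normalized replicate activity at least 40 and at least half of replicates scoring 40 or more; inconclusive = only one of the two criteria met; inactive = mean below 40 and under half of replicates reaching 40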;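 also: 0% = median of neutral control wells and 100% = median of positive control wells; inhibitors cause a drop in the FAM fluorescence signal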
# RAD52 anneal inh – RAD52 DNA annealing inhibitors, primary screen, biochemical, FRET, single point, set 2; recombinant RAD52 DNA annealing, FRET fluorescence; DNA repair protein RAD52 homolog (Homo sapiens), P43351; 360,000 compounds, 0.46% hits; AID 651710, 2012; inhibition, % at 18.7 µM;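 active = every replicate showing at least 50% inhibition; inconclusive = mean inhibition at least 50% but not in every replicate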
# RAD52 DNA ctr – DNA-binding compounds via dye displacement, dose response, artefact control for RAD52 inhibitor project, biochemical, fluorescence polarization, cherry-pick. shares compounds with RAD52 anneal inh. Salmon sperm DNA/acridine orange FP displacement. AC50, µM. 1,000 compounds, 8% hits. AID 652128, 2013;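 active = fitted half-maximal concentration for signal loss at or below twice the highest dose tested, in every separate run, actives reach about 64 µM in these data; inconclusive = runs disagree, or flat partial signal loss, or poor fit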
# An asterisk follows results filed as active; i = inactive; ? = inconclusive; . = no result given; ! = not active in a repeat.
no. | Compound | UUG fidelity | E-sel inducer | Xi reactivation
1 | CN(C)C(=O)C[C@@H]1CC[C@H]2[C@@H](COc3ccc(NC(=O)c4cnccn4)cc3C(=O)N2C)O1 | -9 | 0 | 0
2 | OC(CN1CCOCC1)Cn1c2ccccc2c2ccccc21 (stereo unspecified) | -2 | -2 | 0
3 | OC(CN1CCNCC1)Cn1c2ccccc2c2ccccc21 (stereo unspecified) | -8 | . | 0
4 | COc1ccc(NC(=O)Nc2ccc3c(c2)CC(=O)N([C@H](C)CO)C[C@@H](C)[C@H](CN(C)C(=O)Nc2ccc(F)cc2)O3)cc1 | 7 | 0 | -1
5 | Cn1c(C(=O)NCCCN2CCCCCC2)cc2c(=O)n(C)c3ccccc3c21 | 36 | 0 | 0
6 | CN1CCN(c2ccc(NC(=O)c3ccc(-c4cccc([N+](=O)[O-])c4)o3)cc2)CC1 | . | . | 0
7 | O=C(O)c1cc(-n2nnnc2SCc2ccc([N+](=O)[O-])cc2)ccc1Cl | -13 | 0 | 0
8 | CCOC(=O)c1c(NC(C)=O)sc2c(OCCN(CC)CC)c(Br)ccc12 | . | . | 0
9 | COc1ccc(OCC(O)CN2CCC(CN3C(=O)c4cccc5cccc(c45)C3=O)CC2)cc1 (stereo unspecified) | . | 5 | 0
10 | Cc1ccc(C)c(OCC(O)CN2CCC(CN3C(=O)c4cccc5cccc(c45)C3=O)CC2)c1 (stereo unspecified) | . | . | 2
11 | COc1cc2c3c(cccc3c1)C(=O)N(CCN1CCCC1)C2=O | -16 | 1 | 0
12 | COc1cccc(OCC(O)CN2CCN(CCN3C(=O)c4cccc5cccc(c45)C3=O)CC2)c1 (stereo unspecified) | . | . | 0

no. | RAD54 branch | RAD52 anneal inh | RAD52 DNA ctr
1 | -9 | 1 | .
2 | 9 | -1 | .
3 | 19 | 79* | i
4 | 5 | 8 | .
5 | 44 | 52* | i
6 | . | 58* | i
7 | -8 | 105* | i
8 | . | 61* | i
9 | . | 96* | i
10 | . | . | .
11 | 106* | 71* | 31µM*
12 | . | 91* | ?

# Overlap with the part before: three compounds; new compounds follow.
no. | Compound | UUG fidelity | E-sel inducer | Xi reactivation
10 | Cc1ccc(C)c(OCC(O)CN2CCC(CN3C(=O)c4cccc5cccc(c45)C3=O)CC2)c1 (stereo unspecified) | . | . | 2
11 | COc1cc2c3c(cccc3c1)C(=O)N(CCN1CCCC1)C2=O | -16 | 1 | 0
12 | COc1cccc(OCC(O)CN2CCN(CCN3C(=O)c4cccc5cccc(c45)C3=O)CC2)c1 (stereo unspecified) | . | . | 0
13 | CO[C@@H]1CN(C)C(=O)c2cc(NC(=O)Cc3ccccc3)ccc2OC[C@@H](C)N(C(C)=O)C[C@H]1C | . | 0 | 0
14 | C[C@@H](O)C#Cc1ccc([C@H]2[C@H]3CN(C(=O)c4cccc(F)c4)CCCCN3[C@H]2CO)cc1 | 5 | 0 | 0
15 | CN1CCN(CCCCOc2ccccc2C=O)CC1 | 7 | -5 | 0
16 | COc1cccc(OC)c1OCCCCCCN1CCN(C)CC1 | -9 | . | 0
17 | CCN(CC)CCNC(=O)C(=O)Nc1cc2c3c(c1)CC(=O)N3CCC2 | 2 | 0 | 0
18 | c1ccc(Nc2ccc(NCCc3c[nH]c4ccccc34)cc2)cc1 | . | 0 | 1
19 | CC(=O)OC1C([N+]2(C)CCCCC2)C[C@H]2C3CC[C@H]4C[C@H](OC(C)=O)C([N+]5(C)CCCCC5)CC4(C)[C@H]3CCC12C (stereo partly specified) | -20 | 3 | 0
20 | Cc1cc(N2CCCC2)nc2ccc(NC(=S)NCCCN3CCC(C)CC3)cc12 | . | . | 0
21 | CCCCNC(=S)Nc1ccc2nc(N3CCN(CC)CC3)cc(C)c2c1 | -18 | 0 | 0
22 | CCCCN(CC)C(=S)Nc1ccc2nc(N3CCN(C)CC3)cc(C)c2c1 | -16 | . | -1
23 | CCN1CCN(c2cc(C)c3cc(NC(=O)c4cccs4)ccc3n2)CC1 | -27 | 0 | 12*
24 | CCCC(=O)Nc1ccc2c(c1)OC[C@H](C)N(C)C[C@H](C)[C@@H](OC)CN(C)C2=O | . | 0 | 0

no. | RAD54 branch | RAD52 anneal inh | RAD52 DNA ctr
10 | . | . | .
11 | 106* | 71* | 31µM*
12 | . | 91* | ?
13 | 2 | -8 | .
14 | -4 | -7 | .
15 | 19 | 87* | i
16 | 1 | 6 | .
17 | -5 | 55* | i
18 | . | 78* | i
19 | -13 | 50* | i
20 | . | 76* | i
21 | 30 | 57* | i
22 | 46 | 34 | .
23 | 30 | 63* | i
24 | . | 13 | .

# Additional results.
no. | Compound | UUG fidelity | E-sel inducer | Xi reactivation
25 | CCN1CCN(Cc2ccc(NC(=O)c3cc(NC(=O)c4cncc(-c5ccc(C#N)cc5)c4)cc(OC)c3)cc2C(F)(F)F)CC1 | 9 | 0 | 1
26 | CCN1CCN(Cc2ccc(NC(=O)c3cc(NC(=O)c4cnnc5ccccc45)cc(OC)c3)cc2C(F)(F)F)CC1 | 23 | 0 | 0
27 | CCN1CCN(Cc2ccc(NC(=O)c3ccc(C)c(NC(=O)c4cncc(-c5cccs5)c4)c3)cc2C(F)(F)F)CC1 | 5 | . | .
28 | CCN1CCN(Cc2ccc(NC(=O)c3cc(NC(=O)c4nccnc4N)cc(OC)c3)cc2C(F)(F)F)CC1 | -11 | . | 1
29 | C=CC[N@@+]12CC[C@]34c5ccccc5N5/C=C6\C7N(/C=C(\C53)[C@@H](C[C@@H]41)/C(=C/CO)C2)c1ccccc1[C@@]71CC[N@@+]2(CC=C)C/C(=C\CO)[C@@H]6C[C@@H]12 (stereo partly specified) | -2 | 2 | 0
30 | COc1cccc(-c2nc(C(=O)NCCCN3CCOCC3)cc3c2[nH]c2ccccc23)c1 | -18 | . | .
31 | O=C1/C(=C\c2ccccc2)CN(C(=O)CCN2CCCCC2)C/C1=C/c1ccccc1 | . | 0 | 0
32 | Nc1ccn([C@@H]2O[C@H](CNCc3cccc4c3sc3ccccc34)[C@@H](O)[C@H]2O)c(=O)n1 | -4 | . | 0
33 | Cc1sc2ccccc2c1CNC[C@H]1O[C@@H](n2ccc(N)nc2=O)[C@H](O)[C@@H]1O | -12 | . | 0
34 | O=C(Nc1ccc2c(c1)[C@@H]1C[C@H](CC(=O)N3CCOCC3)O[C@@H](CO)[C@@H]1O2)NC1CCCC1 | 2 | 0 | 0
35 | NCC[C@H](O)C(=O)N[C@@H]1C[C@H](N)[C@@H](O[C@H]2O[C@H](CN)[C@@H](O)[C@H](O)[C@H]2O)[C@H](O)[C@H]1O[C@H]1O[C@H](CO)[C@@H](O)[C@H](N)[C@H]1O | -15 | -2 | 0
36 | O=C(C[C@H]1C=C[C@@H](NC(=O)NC2CCCCC2)[C@@H](CO)O1)NCc1ccccc1 | 0 | 0 | 0
37 | COc1ccc(/C=N/Nc2cc(N3CCCC3)nc(N3CCCC3)n2)cc1 | 13 | 1 | 0
38 | CC(C)c1c(O)c2c(n(-c3ccccc3)c1=O)CCCC2 | . | . | 0
39 | CC/C(=N\O)c1c(O)c2c(n(-c3ccccc3)c1=O)CCCC2 | . | . | 0

no. | RAD54 branch | RAD52 anneal inh | RAD52 DNA ctr
25 | 5 | 87* | i
26 | 22 | 70*! | i
27 | -9 | . | .
28 | 11 | 39 | .
29 | 3 | 69* | i
30 | 27 | 59* | i
31 | . | 55* | i
32 | 22 | 54* | i
33 | 7 | -14 | .
34 | 3 | -3 | .
35 | 100* | 57* | i
36 | -5 | -6 | .
37 | 7 | 73* | i
38 | . | . | .
39 | . | 54* | i
